{"source": "patent US20220053773A1", "about": "(priority 2018, published 2022)", "test_system": "human and plant cells", "test": "Toxicity to human and plant cells"}
{"compound": "CC[C@H](C)[C@H](NC(=O)[C@H](CCCCN)NC(=O)[C@H](CC(C)C)NC(=O)[C@@H](NC(=O)[C@H](CCCCN)NC(=O)[C@H](CCCCN)NC(=O)[C@@H](NC(=O)[C@H](CC(C)C)NC(=O)[C@H](CCCCN)NC(=O)[C@@H](N)CCCCN)[C@@H](C)CC)[C@@H](C)CC)C(=O)N[C@@H](CC(C)C)C(=O)O", "note": "[Peptide P11, KKLIKKILKIL]", "values": [{"measurement": "concentration toxic to human and plant cells", "value": "≥ 40", "unit": "µM"}]}
